Source: patent US9035059B2, “Nitrogen-containing condensed heterocyclic compound” (TAISHO PHARMACEUTICAL CO., LTD., priority 2011, dated 2015)

Amino acid sequences for entries named in this document (tags omitted).
UniProt Q3SYC2, whole entry: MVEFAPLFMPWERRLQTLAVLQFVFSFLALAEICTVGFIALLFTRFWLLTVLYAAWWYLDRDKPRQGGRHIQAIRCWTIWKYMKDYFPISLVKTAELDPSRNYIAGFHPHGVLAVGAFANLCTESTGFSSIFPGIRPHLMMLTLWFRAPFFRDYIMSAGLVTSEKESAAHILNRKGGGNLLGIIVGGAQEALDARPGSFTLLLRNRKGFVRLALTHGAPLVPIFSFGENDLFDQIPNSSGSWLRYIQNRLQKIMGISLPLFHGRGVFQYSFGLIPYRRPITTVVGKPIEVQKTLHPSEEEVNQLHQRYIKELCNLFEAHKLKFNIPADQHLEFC

Molecular target: MGAT2 (microsomal fraction of human small intestine) (Homo sapiens (Human), UniProt Q3SYC2)
Test: Test Example 2: Test of MGAT2 inhibitory action (microsomal fraction of human small intestine, 3H-labeled 2-monooleoyl glycerol)
Type: biochemical
Details: read-out: Activity Value [nM] (IC50, concentration at which 50% of the products 3H-labeled dioleoyl glycerol and trioleoyl glycerol was inhibited); microsomal fraction of human small intestine 5 μg/ml; 4 μM oleoyl-CoA, 1.25 μM 2-monooleoyl glycerol, 0.125 μM 3H-labeled 2-monooleoyl glycerol; room temperature 30 min; tested form: HCl

Row | Structure (SMILES) | IC50
1 | CC(c1cnc(C(C)(C)C)s1)N1CCc2cc(S(=O)(=O)Nc3ccc(CCCC4CCCC4)cc3F)ccc2C1 (single isomer, unassigned) [24-5] | 10 nM
2 | CC(c1cnc(C(C)(C)C)s1)N1CCc2cc(S(=O)(=O)Nc3ccc(CCCC4CCCC4)cc3F)ccc2C1 (single isomer, unassigned) [24-6] | 75 nM
3 | CC(c1cnn(C)c1)N1CCc2cc(S(=O)(=O)Nc3ccc(CCCC4CCCC4)cc3F)ccc2C1 (single isomer, unassigned) | 159 nM
